Common to all, as to format: biochemical
Assay [1] has as its target T1, E. coli GroEL/ES (Escherichia coli, UniProt P0A6F5).
T1 construct: made in house; host or cells: GroEL in NEB 5-alpha E. coli; GroES in E. coli BL21 (DE3)
Kind of assay: GroEL/ES-mediated dMDH refolding assay. On the procedure: Evaluating compounds for inhibition in the GroEL/ES-mediated dMDH refolding assay. All compounds were evaluated for inhibiting E. coli GroEL/ES-mediated refolding of the denatured MDH reporter enzyme. Reagent preparation: For these assays, four primary reagent stocks were prepared: 1) GroEL/ES-dMDH binary complex stock; 2) ATP initiation stock; 3) EDTA quench stock; 4) MDH enzymatic assay stock. Denatured MDH (dMDH) was prepared by 2-fold dilution of MDH (5 mg/ml, soluble pig heart MDH from Roche, product #10127248001) with denaturant buffer (7 M guanidine-HCl, 200 mM Tris, pH 7.4, and 50 mM DTT). MDH was completely denatured by incubating at room temperature for >45 min. […]
Assay Protocol: First, 30 μL aliquots of the GroEL/ES-dMDH binary complex stocks were dispensed into clear, 384-well polystyrene plates. […] A340 nm measurements were recorded at 0.5 minutes (start point) and at successive time points until the amount of NADH consumed reached ˜90% (end point, generally between 20-35 minutes).
Evaluating analogs for inhibiting GroEL/ES-mediated substrate refolding functions. […] We first evaluated all test compounds in our standard GroEL/ES-mediated refolding assays that employ either malate dehydrogenase (MDH) or rhodanese (Rho) as the denatured substrate reporter enzymes. […]

Protein sequences, listed by entry. Tags and fused reporters are not part of them. Residues count along the entry.
UniProt P0A6F5, 2-548: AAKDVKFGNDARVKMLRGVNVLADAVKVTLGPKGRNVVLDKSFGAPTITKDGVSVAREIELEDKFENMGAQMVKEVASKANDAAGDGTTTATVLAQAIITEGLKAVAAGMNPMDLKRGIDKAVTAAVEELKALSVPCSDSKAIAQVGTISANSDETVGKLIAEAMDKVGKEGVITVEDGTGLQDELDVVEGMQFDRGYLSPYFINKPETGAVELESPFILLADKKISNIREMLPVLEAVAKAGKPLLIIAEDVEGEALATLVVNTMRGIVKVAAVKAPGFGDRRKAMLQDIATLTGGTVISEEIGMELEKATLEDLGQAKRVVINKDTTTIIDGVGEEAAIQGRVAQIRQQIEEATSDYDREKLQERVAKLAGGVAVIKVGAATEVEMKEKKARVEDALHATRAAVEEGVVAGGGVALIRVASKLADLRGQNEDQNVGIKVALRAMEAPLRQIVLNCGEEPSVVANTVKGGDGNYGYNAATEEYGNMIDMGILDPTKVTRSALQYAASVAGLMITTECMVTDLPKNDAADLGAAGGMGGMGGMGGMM

Assay [2] concerns the target T1, E. coli GroEL/ES. Briefly: GroEL/ES-mediated dRho refolding assay. On the procedure: Evaluating compounds for inhibition in the GroEL/ES-mediated dRho refolding assay. Reagent preparation: For this assay, five primary reagent stocks were prepared: 1) GroEL/ES-dRho binary complex stock; 2) ATP initiation stock; 3) thiocyanate enzymatic assay stock; 4) formaldehyde quench stock; 5) ferric nitrate reporter stock. Denatured rhodanese (dRho) was prepared by 3-fold dilution of rhodanese (Roche product #R^1756, diluted to 10 mg/mL with H2O) with denaturant buffer (12 M Urea, 50 mM Tris-HCl, pH 7.4, and 10 mM DTT). Rhodanese was completely denatured by incubating at room temperature for >45 min. […]
Assay Protocol: First, 10 μL aliquots of the GroEL/ES-dRho complex stock were dispensed into clear, flat-bottom 384-well polystyrene plates. […] The reporter reaction was quenched by adding 10 μL of the formaldehyde quench stock, and then 40 μL of the ferric nitrate reporter stock was added to quantify the amount of thiocyanate produced during the enzymatic reporter reaction, which is proportional to the amount of dRho refolded by GroEL/ES. After incubating at room temperature for 15 min, the absorbance by Fe(SCN)3 was measured at 460 nm using a Molecular Devices SpectraMax Plus384 microplate reader. […]

Another assay deals with T2, E. coli GroEL (Escherichia coli, UniProt P0A6F5).
T2 construct: made in house; host or cells: NEB 5-alpha E. coli
Kind of assay: GroEL-mediated ATPase assay. On the procedure: Evaluating compounds for inhibition in the GroEL-mediated ATPase assay. All compounds were evaluated for inhibiting E. coli GroEL-mediated ATPase activity as per our previously reported procedure although employing only GroEL in solution and not containing GroES or denatured MDH. Evaluating compounds for inhibition in the GroEL-mediated ATPase assay.
Reagent preparation: For this assay, four primary reagent solutions were prepared: 1) GroEL protein solution; 2) ATP initiation solution; 3) EDTA quench solution; 4) malachite green reporter solution. […]
Assay Protocol: First, 10 μL aliquots of the GroEL protein solution were dispensed into clear, flat-bottom 384-well polystyrene plates. […] The absorbance of the malachite green-phosphate complex was measured at 600 nm using a Molecular Devices SpectraMax Plus384 microplate reader. A second set of baseline control plates were prepared analogously, but without GroEL protein solution, to correct for possible interference from compound absorbance or turbidity. […]
Evaluating analogs for inhibiting GroEL-mediated ATPase activity. […] Malachite green was then added to the assay to bind and detect free phosphates in solution (absorbance detection at k=600 nm). If analogs inhibited ATPase activity, then there would be no free phosphates for malachite green to bind, leading to minimal absorbance at 600 nm.

In assay [3] the target is T1, E. coli GroEL/ES. Briefly: GroEL/ES-mediated dMDH refolding assay in the presence of E. coli NfsB nitroreductase. On the procedure:
Evaluating compounds for inhibition in the GroEL/ES-mediated dMDH refolding assay and native MDH activity counter-screen in the presence of E. coli NfsB nitroreductase. These assays were performed nearly identically to those mentioned above, but with a couple distinct modifications. For both assays, 10 μg/mL of the E. coli NfsB nitroreductase enzyme (Sigma product #N9284) was added to the initial GroEL/ES-dMDH solution. For the GroEL/ES-dMDH refolding assay, after stamping with compounds, 10 μL of a 2.4 mM NADH solution was added, followed by a 10 minute incubation period at 37° C. to bioactivate the nitrofuran analogs. The remainder of the assay was conducted as in our standard protocol where no NfsB nitroreductase was present. […] For the native MDH activity counter-screen in the presence of E. coli NfsB nitroreductase, the assay was performed as described above for the GroEL/ES-dMDH refolding assay with NfsB; however, compound addition to the assay plates was conducted after the EDTA quench step, followed by a 10 minute incubation period at 37° C. to bioactivate the nitrofuran analogs. […] Results presented represent the averages of IC50 values obtained from at least four replicates in each assay.
Evaluating analogs for inhibiting GroEL/ES-mediated substrate refolding functions in the presence of the E. coli NfsB type-1 nitroreductase. […]

Structures are written as SMILES. Where only a bound is given, the exact number is not on record here.

The values below come from patent US20220009914A1, “Analogs of Nitrofuran Antibiotics to Combat Resistance” (The Trustees of Indiana University, priority 2020, published 2022).

By IC50 is commonly meant the concentration at which inhibition is half-maximal.

For the compound `O=C(N/N=C/c1ccc([N+](=O)[O-])o1)c1ccccc1Oc1ccccc1` [Compound 23, N′-((5-nitrofuran-2-yl)methylene)-2-phenoxybenzohydrazide], the IC50 on E. coli GroEL/ES [1] is 85 µM; against E. coli GroEL/ES [2], 83 µM; on E. coli GroEL it was greater than 250 µM; on E. coli GroEL/ES [3] it was 8.3 µM.
